Laboratory results taken from patent publication US10308689B2, “Dengue virus (DV) polypeptide sequences, T cell epitopes and methods and uses thereof” (LA JOLLA INSTITUTE FOR ALLERGY AND IMMUNOLOGY, priority 2010, dated 2019).

Test system: PBMC of healthy adult blood donors from Colombo, Sri Lanka
Test: Ex vivo IFNγ ELISPOT, HLA-matched PBMC of Sri Lankan blood donors
Type: cell-based, human
Details: ex vivo IFNγ ELISPOT
[1] = donors expressing HLA A*0201 (supertype A2)
[2] = donors expressing HLA B*0702 (supertype B7)
[3] = donors expressing HLA A*1101 (supertype A3)
[4] = donors expressing HLA B*3501 (supertype B7)

SMILES: CSCC[C@H](NC(=O)[C@H](Cc1ccc(O)cc1)NC(=O)[C@@H]1CCCN1C(=O)[C@H](CC(N)=O)NC(=O)[C@H](CC(C)C)NC(=O)[C@@H](N)C(C)C)C(=O)N1CCC[C@H]1C(=O)N[C@@H](CO)C(=O)N[C@H](C(=O)O)C(C)C
- T cell response [SFC] (donors expressing A*0201): 987 SFC

SMILES: CC(C)C[C@H](NC(=O)CNC(=O)[C@H](CCC(=O)O)NC(=O)CN)C(=O)N[C@@H](Cc1c[nH]cn1)C(=O)N[C@@H](CCCCN)C(=O)N[C@@H](CC(C)C)C(=O)NCC(=O)N[C@@H](Cc1ccc(O)cc1)C(=O)O
- T cell response [SFC] (donors expressing B*4403): 248 SFC

SMILES: CC(C)C[C@H](NC(=O)[C@H](CCCNC(=N)N)NC(=O)[C@@H]1CCCN1C(=O)[C@@H](N)CCCCN)C(=O)N[C@@H](CS)C(=O)N[C@H](C(=O)N[C@@H](CCCNC(=N)N)C(=O)N[C@@H](CCC(=O)O)C(=O)N[C@@H](CCC(=O)O)C(=O)N[C@@H](Cc1ccccc1)C(=O)O)[C@@H](C)O
- T cell response [SFC] (donors expressing B*0702): 48 SFC

SMILES: CC[C@H](C)[C@H](N)C(=O)N[C@H](C(=O)N[C@@H](CC(C)C)C(=O)N[C@@H](CC(C)C)C(=O)N[C@@H](CS)C(=O)N[C@@H](CC(C)C)C(=O)N[C@H](C(=O)N1CCC[C@H]1C(=O)N[C@H](C(=O)N[C@H](C(=O)O)C(C)C)[C@@H](C)O)[C@@H](C)CC)[C@@H](C)O
- T cell response [SFC] [1]: 43 SFC

SMILES: C[C@H](NC(=O)[C@@H](NC(=O)[C@H](CCC(N)=O)NC(=O)[C@@H](NC(=O)[C@H](Cc1c[nH]cn1)NC(=O)[C@H](Cc1ccc(O)cc1)NC(=O)CNC(=O)[C@@H]1CCCN1C(=O)[C@@H](N)CCCNC(=N)N)[C@@H](C)O)[C@@H](C)O)C(=O)O
- T cell response [SFC] [2]: 177 SFC

SMILES: CC(C)C[C@H](NC(=O)[C@H](CC(C)C)NC(=O)[C@@H](NC(=O)[C@H](C)NC(=O)[C@H](C)NC(=O)[C@@H](NC(=O)[C@H](CC(C)C)NC(=O)[C@@H](N)[C@@H](C)O)[C@@H](C)O)C(C)C)C(=O)N[C@@H](CC(C)C)C(=O)N[C@H](C(=O)O)C(C)C
- T cell response [SFC] [1]: 43 SFC

SMILES: CC[C@H](C)[C@H](N)C(=O)N[C@@H](CS)C(=O)N[C@@H](CO)C(=O)N[C@@H](C)C(=O)N[C@H](C(=O)N1CCC[C@H]1C(=O)N[C@H](C(=O)N[C@@H](Cc1c[nH]cn1)C(=O)N[C@@H](Cc1c[nH]c2ccccc12)C(=O)O)C(C)C)C(C)C
- T cell response [SFC] (donors expressing B*5801): 305 SFC

SMILES: CSCC[C@H](NC(=O)[C@H](CCSC)NC(=O)[C@@H](N)CCSC)C(=O)N[C@@H](CC(C)C)C(=O)N1CCC[C@H]1C(=O)N[C@@H](C)C(=O)N[C@H](C(=O)N[C@@H](CC(C)C)C(=O)N[C@@H](C)C(=O)O)[C@@H](C)O
- T cell response [SFC] [1]: 62 SFC

SMILES: CC[C@H](C)[C@H](NC(=O)[C@H](CCSC)NC(=O)[C@H](CC(N)=O)NC(=O)[C@@H]1CCCN1C(=O)[C@@H](N)CC(N)=O)C(=O)N[C@@H](CC(=O)O)C(=O)N[C@@H](CCCCN)C(=O)N[C@H](C(=O)N1CCC[C@H]1C(=O)N[C@H](C(=O)O)C(C)C)[C@@H](C)O
- T cell response [SFC] (donors expressing B*0702): 207 SFC

SMILES: CSCC[C@H](NC(=O)[C@H](Cc1ccc(O)cc1)NC(=O)[C@@H]1CCCN1C(=O)[C@H](CC(N)=O)NC(=O)[C@H](CC(C)C)NC(=O)[C@@H](NC(=O)[C@@H](N)CCCCN)C(C)C)C(=O)N1CCC[C@H]1C(=O)N[C@@H](CO)C(=O)N[C@H](C(=O)O)C(C)C
- T cell response [SFC] (donors expressing A*0201): 48 SFC

SMILES: CC[C@H](C)[C@H](NC(=O)[C@H](CC(C)C)NC(=O)[C@H](Cc1ccccc1)NC(=O)[C@H](CC(C)C)NC(=O)[C@H](CCSC)NC(=O)[C@H](C)NC(=O)CN)C(=O)N[C@@H](CO)C(=O)NCC(=O)N[C@@H](CCCCN)C(=O)O
- T cell response [SFC] [3]: 212 SFC

SMILES: C[C@H](NC(=O)[C@H](Cc1c[nH]c2ccccc12)NC(=O)[C@@H](NC(=O)[C@H](CCCNC(=N)N)NC(=O)[C@H](Cc1ccc(O)cc1)NC(=O)[C@@H]1CCCN1C(=O)[C@H](CC(N)=O)NC(=O)[C@H](CCC(=O)O)NC(=O)[C@@H](N)CCC(N)=O)[C@@H](C)O)C(=O)N[C@@H](Cc1ccc(O)cc1)C(=O)O
- T cell response [SFC] (donors expressing B*4001): 992 SFC

SMILES: CSCC[C@H](NC(=O)[C@@H]1CCCN1C(=O)[C@@H](NC(=O)[C@@H](NC(=O)[C@H](Cc1ccccc1)NC(=O)[C@@H](NC(=O)[C@@H](NC(=O)[C@H](C)NC(=O)[C@@H](N)C(C)C)[C@@H](C)O)[C@@H](C)O)C(C)C)[C@@H](C)O)C(=O)O
- T cell response [SFC] [4]: 268 SFC

SMILES: CC[C@H](C)[C@H](NC(=O)[C@@H](NC(=O)[C@@H](NC(=O)[C@H](CC(N)=O)NC(=O)[C@H](Cc1c[nH]c2ccccc12)NC(=O)[C@H](Cc1ccccc1)NC(=O)[C@H](CCCCN)NC(=O)CNC(=O)[C@@H]1CCCN1C(=O)[C@@H](N)CO)[C@@H](C)O)[C@@H](C)O)C(=O)O
- T cell response [SFC] [2]: 105 SFC

SMILES: CSCC[C@H](NC(=O)[C@@H](NC(=O)[C@H](CCSC)NC(=O)[C@H](CO)NC(=O)[C@@H]1CCCN1C(=O)[C@@H](NC(=O)[C@@H](NC(=O)[C@H](CC(C)C)NC(=O)[C@@H](N)CCSC)C(C)C)[C@@H](C)O)[C@@H](C)O)C(=O)O
- T cell response [SFC] [4]: 115 SFC

SMILES: CC(C)C[C@H](NC(=O)[C@H](C)NC(=O)[C@H](CCC(=O)O)NC(=O)[C@H](Cc1ccccc1)NC(=O)[C@H](CCC(=O)O)NC(=O)[C@H](CC(C)C)NC(=O)[C@H](Cc1ccc(O)cc1)NC(=O)[C@@H](N)CCCNC(=N)N)C(=O)NCC(=O)N[C@@H](Cc1ccccc1)C(=O)O
- T cell response [SFC] (donors expressing A*2402): 130 SFC

SMILES: CC[C@H](C)[C@H](NC(=O)[C@H](C)NC(=O)CNC(=O)[C@H](CO)NC(=O)[C@@H](N)CCCCN)C(=O)N[C@@H](CCCCN)C(=O)N[C@H](C(=O)N[C@@H](CC(C)C)C(=O)N[C@@H](CCCCN)C(=O)O)C(C)C
- T cell response [SFC] [3]: 823 SFC

SMILES: CSCC[C@H](NC(=O)[C@H](Cc1c[nH]c2ccccc12)NC(=O)[C@@H]1CCCN1C(=O)[C@@H](N)CC(N)=O)C(=O)N[C@@H](CCC(=O)O)C(=O)N[C@@H](CC(=O)O)C(=O)N[C@@H](CCCCN)C(=O)N[C@H](C(=O)N1CCC[C@H]1C(=O)N[C@H](C(=O)O)C(C)C)[C@@H](C)O
- T cell response [SFC] (donors expressing B*0702): 137 SFC

SMILES: CSCC[C@H](NC(=O)[C@@H](NC(=O)[C@H](Cc1ccc(O)cc1)NC(=O)[C@H](CO)NC(=O)[C@@H](N)CCSC)[C@@H](C)O)C(=O)N[C@@H](CS)C(=O)N[C@@H](CO)C(=O)NCC(=O)N[C@@H](CCCCN)C(=O)O
- T cell response [SFC] [3]: 48 SFC
